{
  "sequences": {"note": "Protein sequences, listed by entry. Tags and fused reporters are not part of them.", "UniProt O94956, whole entry R312Q": "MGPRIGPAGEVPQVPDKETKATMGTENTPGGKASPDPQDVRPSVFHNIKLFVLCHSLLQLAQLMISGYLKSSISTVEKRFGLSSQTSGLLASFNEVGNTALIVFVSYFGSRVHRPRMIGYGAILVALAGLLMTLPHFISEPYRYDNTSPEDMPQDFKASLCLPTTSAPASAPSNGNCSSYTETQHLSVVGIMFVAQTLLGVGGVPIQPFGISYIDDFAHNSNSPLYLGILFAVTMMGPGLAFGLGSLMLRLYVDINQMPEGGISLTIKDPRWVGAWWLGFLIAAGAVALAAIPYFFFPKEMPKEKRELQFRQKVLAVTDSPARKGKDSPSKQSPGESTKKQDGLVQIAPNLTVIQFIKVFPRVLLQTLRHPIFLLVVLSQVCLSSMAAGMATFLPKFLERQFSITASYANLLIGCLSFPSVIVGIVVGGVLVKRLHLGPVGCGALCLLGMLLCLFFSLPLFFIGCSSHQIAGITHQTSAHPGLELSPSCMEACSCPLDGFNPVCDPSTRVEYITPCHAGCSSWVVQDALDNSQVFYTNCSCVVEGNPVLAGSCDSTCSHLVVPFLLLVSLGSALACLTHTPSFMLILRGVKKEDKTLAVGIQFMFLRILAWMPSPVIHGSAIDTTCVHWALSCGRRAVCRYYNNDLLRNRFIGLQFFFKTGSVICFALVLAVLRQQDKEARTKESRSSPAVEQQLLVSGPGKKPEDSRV"},
  "source": "patent US10273544B2",
  "about": "“Methods for predicting likelihood of responding to treatment” (Dana-Farber Cancer Institute, Inc., priority 2010, dated 2019)",
  "key": {"SLCO2B1-312Arg": {"molecular_target": "SLCO2B1-312Arg (Homo sapiens, UniProt O94956)", "assay": "DHEAS uptake assay in LNCaP cells transfected with SLCO2B1-312Arg", "source_text": "(§1) Two full-length SLCO2B1 cDNAs, SLCO2B1-312Gln (having a G at the position 935) and SLCO2B1-312Arg (having an A at position 935), were cloned into the pCMV6-XL4 vector (OriGene Technologies, Rockville, Md.). The SLCO2B1 935G>A nucleotide exchange was introduced into the cDNA using the QuikChange Site-Directed Mutagenesis kit (Stratagene, La Jolla, Calif.). Primers used for the mutagenesis were 5′-[…]-3′ (SEQ ID NO:1) and 5′-[…]-3′ (SEQ ID NO:2) (underlined sequences encode 312Arg).\n(§2) LNCaP cells were maintained in RPMI 1640 supplemented with 10% fetal bovine serum (FBS). Twenty-four hours before transfection, 2×10^5 cells were seeded in 12-well plates using Phenol-Red free RPMI 1640 supplemented with 10% charcoal-stripped FBS. LNCaP cells were transiently transfected with pCMV-SLCO2B1-312Gln, pCMV-SLCO2B1-312Arg, or pCMV6-XL4 empty vector using Lipofectamine^2000 according to the manufacturer's instructions.\n(§3) The enzyme immunoassay test is based on the competition that occurs between an unlabeled antigen (present in standards, control and samples) and an enzyme-labeled antigen (conjugate) for a limited number of antibody binding sites on the microwell plate. The sensitivity of the kit is 5 ng/ml."}, "SLCO2B1-312Gln": {"molecular_target": "SLCO2B1-312Gln (Homo sapiens, UniProt O94956, R312Q)", "assay": "DHEAS uptake assay in LNCaP cells transfected with SLCO2B1-312Gln", "source_text": "as §1, §2, §3"}, "AR": {"system": "AR", "assay": "AR expression by quantitative RT-PCR", "assay_type": "cell-based", "settings": "100 μM DHEAS", "description": "Total RNA was isolated from cells using TRIzol reagent (Invitrogen, Carlsbad, Calif.) and then converted to cDNA using High Capacity cDNA Reverse Transcription kit (Applied Biosystems, Foster City, Calif.). The expression levels of SLCO2B1 and GAPDH were measured using a standard TaqMan PCR kit protocol. Experiments were carried out in triplicate for each data point. Real-time PCR primers and probe sets were inventoried products of Applied Biosystem (Assay ID: Hs00200670_m1 and Hs02758991_g1).\nTo determine the biological influence of DHEAS uptake in AR activation, AR mediated PSA expression was compared in wild type LNCaP and LAPC-4 cells (another CaP cell line, maintained as described above for LNCaP cells) and cells that express different SLCO2B1 variants. The expression levels of AR and PSA were measured using a standard TaqMan PCR kit protocol (Hs02576345_m1 and Hs00171172_m1) as described in Example 3."}, "LNCaP cells": {"system": "LNCaP cells", "assay": "Cell proliferation, WST-1 assay, LNCaP", "assay_type": "cell-based", "settings": "100 μM DHEAS", "description": "To corroborate the hypothesis that increasing the intracellular androgen level is involved in the development of the CRPC cells, the impact of DHEAS uptake on cell growth was determined. Cell proliferation was determined using a WST-1 kit (Roche, Indianapolis, Ind.). Briefly, cells were cultured in 96-well plates in androgen-depleted medium and were transfected with different alleles of SLCO2B1 expression plasmids before adding 100 μM DHEAS. Tetrazolium salt cell proliferation assay then was carried out at different days after transfection, following the manufacturer's instructions."}},
  "data": [
    {"molecule": "C[C@]12CC[C@H](OS(=O)(=O)O)CC1=CC[C@@H]1[C@@H]2CC[C@]2(C)C(=O)CC[C@@H]12", "note": "[DHEAS, sulfated dehydroepiandrosterone]", "values": [
      {"measurement": "maximal uptake of DHEAS", "setting": "SLCO2B1-312Arg; 100 μM DHEAS, LNCaP cells expressing SLCO2B1-312Arg", "value": "162.76±25.73", "unit": "pmol/mg protein"},
      {"measurement": "Vmax for DHEAS uptake", "setting": "SLCO2B1-312Arg; 312Arg variant", "value": 189.5, "unit": "pmol/mg protein/min"},
      {"measurement": "maximal uptake of DHEAS", "setting": "SLCO2B1-312Gln; 100 μM DHEAS, LNCaP cells expressing SLCO2B1-312Gln", "value": "223.38±8.55", "unit": "pmol/mg protein"},
      {"measurement": "Vmax for DHEAS uptake", "setting": "SLCO2B1-312Gln; 312Gln variant", "value": 281.4, "unit": "pmol/mg protein/min"},
      {"measurement": "AR expression level, SLCO2B1-Gln cells relative to SLCO2B1-Arg cells", "setting": "AR", "value": 1.24, "unit": "fold"},
      {"measurement": "increase of growth efficiency", "setting": "LNCaP cells; LNCaP transfected with SLCO2B1-312Arg", "value": 2.0, "unit": "fold"},
      {"measurement": "increase of growth efficiency", "setting": "LNCaP cells; LNCaP transfected with SLCO2B1-312Gln", "value": 2.5, "unit": "fold"}
    ]}
  ]
}
